Nrf2 block: blocks Nrf2 signaling; A549 ARE-Fluc reporter, luciferase luminescence, 18-24 h; Potency, µM (doses to about 46 µM), for the others: at the highest dose activity change, negative = inhibition, most hits filed as inhibitors; 2.1% of 360,000 active; AID 504444; also: potency is read from the fitted curve at half-maximal effect; % is scaled to controls: 0 for no effect and ±100 for the full control effect; nearly all actives have a fitted effect of over 60% in size
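Quantitative HTS in A549 cells stably bearing an antioxidant response element-firefly luciferase construct. Inhibition of Nrf2-driven transcription was scored by luminescence after 18-24 h of compound exposure at 37 °C.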
ClpP mod: qHTS Assay for Activators of ClpP; ATP-dependent Clp protease proteolytic subunit (Bacillus subtilis (strain 168)), P80244; purified B. subtilis ClpP, FRET peptide cleavage, 20 min; Potency, µM (titrated, usually from 57.5 µM), inactives show at the highest dose activity change, negative = active; 1.9% of 340,000 active; active = well fitted falling curve with a large enough effect; inconclusive = small, poorly fitted or top-dose-only effect; inactive = no such curve, though single readings can be large or run the other way; also: potency is read from the fitted curve at half-maximal effect; the source files actives as falling curves though it sought activators and does not explain the sign; nearly all actives have a fitted effect of over 65% in size
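Purified B. subtilis ClpP, 10 microg/mL final in Tris/HCl pH8 with KCl, BSA, glycerol and Tween-20, cleaved an Abz/nitrotyrosine-quenched decapeptide. Fluorescence (ex 320, em 430) was read at 0 and 20 min at room temperature. Delta was normalized to 5.8 microM ADEP and DMSO/no-enzyme controls.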
Nrf2 activator: activates Nrf2 signaling. AREc32 ARE-luciferase reporter (MCF7-derived line), luminescence, 24 h. Potency, µM (titrated, usually from 46.1 µM), inactives show at the top dose activation, most hits filed as activators. 0.31% of 410,000 active. AID 624171; also: potency is read from the fitted curve at half-maximal effect; % of control where 0% means no effect; nearly all actives have a fitted effect of over 65% in size
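Luminescent ARE reporter assay in AREc32_Fluc cells: overnight plating at 37 deg C, 24 hr compound incubation, Steady-Glo added, 30 min RT before reading.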
p53 reactivation: re-activators of mutant p53 | H1299 p53-A138V BP100-luciferase reporter, luminescence, 24 h | Potency, µM (doses to about 92.2 µM), for inactives: at the top dose activity change, positive = activation, most hits filed as activators | 0.063% of 320,000 active | AID 504706; also: potency is read from the fitted curve at half-maximal effect; % of control where 0% means no effect; nearly all actives have a fitted effect of over 45% in size
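p53-null H1299 cells stably carrying temperature-sensitive p53-A138V and a BP100-luciferase reporter were pinned with compounds (4-point, 1:5 series) and held 24 hrs at 37 deg C. Luminescence was read 10 min after detection reagent.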
A549 tox: kills or reduces viability of A549 cells in Nrf2 counter-screen; AID 504648; A549 ARE-Fluc cells, CellTiter-Fluor viability, 18-24 h; 0.16% of 390,000 active; Potency, µM (highest dose often 46 µM), for the others: top-dose activity change, negative = cytotoxicity, hits mostly inhibitors; also: potency is read from the fitted curve at half-maximal effect; % is scaled to controls: 0 for no effect and ±100 for the full control effect
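Cytotoxicity counterscreen: CellTiter-Fluor fluorescence was measured in A549 ARE_Fluc cells after 18-24 h of compound exposure in a concentration series. The subsequent BugLite luminescent read reports ARE-luciferase activity.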
miR-21 reporter: raises the signal of a miR-21 reporter; AID 2288; 340,000 tested, under 10 active; Potency, µM (doses to about 38.3 µM), inactives show at the top dose reporter change, positive = more light; HeLa miR-21 FLuc reporter, luciferase, 48 h; active = well fitted rising curve with a large enough effect; inconclusive = small, poorly fitted or top-dose-only effect; inactive = no such curve, though single readings can be large or run the other way;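 note: % of control where 0% means no effect; miR-21 action dims this reporter so a rising signal means less miR-21 action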
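Using DMEM plus 10% FBS, HeLa miR-21-FLuc cells are incubated with test compounds (final up to about 40uM) for 48 hours; firefly luciferase signal is then imaged following reagent-mediated lysis.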
* = called active by the depositor; ? = inconclusive; . = no result; [ ] = remark or other dose. This is a sample that favours compounds with a hit; in the whole collection about 3.7% have one here. Unless noted, calls follow the shape of the dose curve; as a rule, active = well fitted curve in the direction sought with a large enough effect; inconclusive = small, poorly fitted or top-dose-only effect, or another doubt; inactive = no such curve, though single readings can be large; an effect the other way counts as inactive or inconclusive.

Order of results: Nrf2 block	ClpP mod	Nrf2 activator	p53 reactivation	A549 tox	miR-21 reporter
> COc1cccc(N2CCN(S(=O)(=O)c3ccc4[nH]c5c(c4c3)CCCC5)CC2)c1
→ ?	?	3.8%	.	0.2%	4.7%
> COc1ccccc1N1CCN(S(=O)(=O)c2ccc3[nH]c4c(c3c2)CCCC4)CC1
→ 23.1µM*	?	0.4%	.	-12.2%	18.0%
> COc1cc(Cl)c(NC(=O)CN(C)S(=O)(=O)c2ccc3[nH]c4c(c3c2)CCCC4)c(OC)c1
→ 23.1µM*	?	6.5%	.	-0.9%	22.5%
> COc1ccc2nc3oc(C(=O)N4CCN(c5cc(C)ccc5C)CC4)cc3cc2c1
→ ?	-14.6%	0.5%	.	17.7%	-0.9%
> CC(C)OCCCNC(=O)c1c2c(nc3ccccc13)C(=O)N(C1CCCCC1)C2
→ -7.7%	?	-1.0%	.	-0.9%	-0.4%
> COC(=O)c1ccc(Cl)cc1NC(=O)Nc1nnc(N(C)Cc2ccccc2)s1
→ ?	-15.4%	-1.2%	.	7.9%	-8.6%
> Cc1cccc(/C=C(\c2nc3ccccc3[nH]2)S(=O)(=O)c2ccccc2)c1
→ 23.1µM*	.	?	-51.7%	?	?
> COc1cc2[nH]c(=O)n(Cc3ccc(C(=O)N4CCN(c5cccc(C)c5C)CC4)cc3)c(=O)c2cc1OC
→ -17.8%[9.27 µM]	?	0.0%	.	-0.4%	3.2%
> COc1cc2c(cc1OC)-c1cc(N3CCCCCC3)nc(=O)n1CC2
→ 9.3%	25.1µM*	3.3%	-7.8%	-1.4%	-30.1%
> COc1ccc(Nc2cc3n(c(=O)n2)CCc2cc(OC)c(OC)cc2-3)cc1
→ -26.6%	-0.5%	8.1%	-7.6%	?	-24.2%

Looked up by structure from above:
Order of results: Nrf2 block	ClpP mod	Nrf2 activator	p53 reactivation	A549 tox	miR-21 reporter
> COc1cc2c(cc1OC)-c1cc(N3CCCCCC3)nc(=O)n1CC2
→ 9.3%	25.1µM*	3.3%	-7.8%	-1.4%	-30.1%
> COc1ccccc1N1CCN(S(=O)(=O)c2ccc3[nH]c4c(c3c2)CCCC4)CC1
→ 23.1µM*	?	0.4%	.	-12.2%	18.0%

Further compounds:
Order of results: Nrf2 block	ClpP mod	Nrf2 activator	p53 reactivation	A549 tox	miR-21 reporter
> CCN(CC)CCCNc1cc2n(c(=O)n1)CCc1cc(OC)c(OC)cc1-2
→ 4.0%	25.1µM*	0.3%	-3.4%	-4.3%	-12.7%
> COc1cc2c(cc1OC)-c1cc(NC3CCCCCC3)nc(=O)n1CC2
→ ?	25.1µM*	7.2%	-4.2%	-1.1%[1.84 µM]	-38.2%[0.307 µM]
> Cc1cc(Br)ccc1NC(=O)C(NS(=O)(=O)c1cccs1)c1ccccc1 (stereo not given)
→ 11.1%	-0.2%	3.0%	.	-2.6%	0.9%
> CCOC(=O)c1ccc(NC(=O)CSc2c(C(C)C)cnc3c2c(=O)n(C)c(=O)n3C)cc1
→ .	-1.9%	0.2%	.	14.7%	-0.1%
> Fc1cccc(/C=N/Nc2ccccn2)c1
→ ?	.	7.08µM*	3.5%	1.2%	-46.0%
> Cc1ccc(C)c(/C=N/Nc2ccccn2)c1
→ ?	.	8.91µM*	3.9%	1.0%	-36.3%
> O=c1[nH]cnc2nc(-c3ccccc3)c(-c3ccccc3)nc12
→ 11.9%	28.2µM*	-0.9%	-4.7%	-8.6%	0.5%
> CCS(=O)(=O)N1CC(=O)N(c2cc(C)cc(C)c2)C(C)(C(=O)NC2CCCCC2)C1 (stereo not given)
→ 27.5%	0.7%	-1.2%	.	0.5%	-2.9%
> O=C(CCNc1ccc(Cl)cc1)c1cccs1
→ 23.0%	1.5%	?	15.8µM*	-0.8%	-43.9%
> O=C(CCNc1cc(Cl)cc(Cl)c1)c1cccs1
→ 8.9%	-0.2%	6.31µM*	11.0%	6.5%	-9.2%

Going on with the list.
Order of results: Nrf2 block	ClpP mod	Nrf2 activator	p53 reactivation	A549 tox	miR-21 reporter
> O=C(CCSc1ccc(Cl)cc1)c1cccs1
→ -17.1%	0.4%	?	-34.4%	-6.5%	11.3%
> COc1ccc(OC)c(C(c2nnnn2Cc2ccco2)N2CCN(C)CC2)c1 (stereo not given)
→ 5.1%	0.1%	-0.1%	3.4%	2.8%	-1.1%
> COc1cccc(C(c2nnnn2Cc2ccco2)N2CCN(c3cccc(C)c3C)CC2)c1OC (stereo not given)
→ 23.1µM*	-1.2%	-0.2%	-27.9%	0.6%	14.6%
> Nc1c2c(=O)oc(-c3ccccc3)cc2nn1-c1ccccc1
→ -11.7%	14.1µM*	4.7%	28.5%	-11.3%	-30.0%
> O=C1COc2ccc(-c3cc(-c4ccc(Cl)cc4)c4c(n3)-c3ccccc3OC4)cc2N1
→ 8.3%	-11.0%	-0.2%	.	11.6%	-2.1%
> O=C(Nc1ccc2c(c1)CCCN2C(=O)c1cccs1)c1c(F)cccc1F
→ -9.8%	-1.8%	-0.5%	-2.4%	-2.5%	15.1%
> O=C(Nc1ccc2c(c1)N(S(=O)(=O)c1cccs1)CCC2)c1c(F)cccc1F
→ -11.5%	11.2µM*	0.2%	-3.6%	0.4%	.
> CCCN(CCC)S(=O)(=O)c1ccc(C(=O)N2CCCc3ccccc32)cc1
→ 18.4µM*	0.4%	-0.4%	4.2%	-22.4%	14.4%
> O=C(Nc1ccc2c(c1)CCCN2C(=O)c1cccs1)c1c(F)cccc1Cl
→ 25.9µM*	0.8%	4.4%	-10.1%	-15.7%	19.2%
> O=C(Nc1ccc(C(=O)N2CCCc3ccccc32)cc1)c1cccs1
→ 20.6µM*	.	0.2%	.	?	4.1%

The list continues.
Order of results: Nrf2 block	ClpP mod	Nrf2 activator	p53 reactivation	A549 tox	miR-21 reporter
> Cc1ccccc1C(=O)N1CCC(C(=O)N2CCCc3ccccc32)CC1
→ 16.0%	1.1%	2.0%	19.4%	0.6%	.
> O=C(c1ccc(Cl)cc1)N1CCC(C(=O)N2CCCc3ccccc32)CC1
→ 7.2%	31.6µM*	1.5%	-5.5%	-5.5%	0.0%
> Cc1ccn2c(NC(=O)C(C)(C)Oc3ccc(Cl)cc3)c(-c3cccs3)nc2c1
→ ?	31.6µM*	6.7%	0.6%	?	6.4%
> Cc1ccc(C(=O)Nc2c(-c3cccs3)nc3cc(C)ccn23)cc1
→ .	-0.3%	-0.8%	-2.8%	-9.5%	2.5%
> CN(C(=O)Cn1cc(S(=O)(=O)Cc2ccccc2Cl)c2ccccc21)c1ccccc1
→ -8.7%	0.8%	3.2%	.	-13.8%	-9.9%
> C/C(=N\NC(=O)c1nnn(-c2nonc2N)c1CN(C)c1ccccc1)c1ccccc1O
→ 8.2µM*	.	-0.7%	?	-18.1%	26.7%
> COc1ccc(/C(C)=N/NC(=O)c2nnn(-c3nonc3N)c2CN(C)c2ccccc2)cc1
→ 16.4µM*	-0.2%	0.4%	-7.8%	-12.6%	-3.8%
> C/C(=N\NC(=O)c1nnn(-c2nonc2N)c1CN1CCCCC1)c1ccccc1O
→ ?	.	-0.5%	5.7%	1.5%	5.9%
> CN1CCc2c(sc3nc(SCC(N)=O)n(-c4ccccc4)c(=O)c23)C1
→ 3.0%	28.2µM*	1.8%	-1.9%	-5.3%	-1.7%
> CSc1nc(NCc2ccccc2)c2c3c(sc2n1)CN(C)CC3
→ 7.1%	14.1µM*	4.4%	?	-2.5%	-33.0%

Other entries follow.
Order of results: Nrf2 block	ClpP mod	Nrf2 activator	p53 reactivation	A549 tox	miR-21 reporter
> CN1CCc2c(sc3nc(SCC(=O)N4CCCCC4)n(-c4ccccc4)c(=O)c23)C1
→ 2.1%	3.7%	-0.4%	0.8%	-7.1%	1.4%
> COC(=O)CSc1nc2sc3c(c2c(=O)n1-c1ccccc1)CCN(C)C3
→ 12.5%	17.8µM*	0.3%	-2.0%	0.4%	-5.6%
> CC(C)Sc1nc(N)c2c3c(sc2n1)CN(C)CC3
→ ?	28.2µM*	4.3%	22.4%	2.0%	-31.0%
> CCCSc1nc(N)c2c3c(sc2n1)CN(C)CC3
→ -26.3%	?	6.8%	?	-7.9%	-28.2%

Molecules from the list above that contain a furan ring, fused or not, in the order listed:
Order of results: Nrf2 block	ClpP mod	Nrf2 activator	p53 reactivation	A549 tox	miR-21 reporter
> COc1ccc2nc3oc(C(=O)N4CCN(c5cc(C)ccc5C)CC4)cc3cc2c1
→ ?	-14.6%	0.5%	.	17.7%	-0.9%
> COc1ccc(OC)c(C(c2nnnn2Cc2ccco2)N2CCN(C)CC2)c1 (stereo not given)
→ 5.1%	0.1%	-0.1%	3.4%	2.8%	-1.1%
> COc1cccc(C(c2nnnn2Cc2ccco2)N2CCN(c3cccc(C)c3C)CC2)c1OC (stereo not given)
→ 23.1µM*	-1.2%	-0.2%	-27.9%	0.6%	14.6%
